Data from patent US7119100B2, “Oripavine derivatives and their uses as pharmaceuticals” (dated 2006).

How the values were obtained:
mice [1] = assay: mice 55° C. hot plate test (sc/po); conditions: for hot plate test Max. efficacy: hydrochloride
mice [2] = assay: acetic acid writhing test

| Structure (SMILES) | hot plate test ED50 (mice [1]) | hot plate test Max. efficacy (mice [1]) | acetic acid writhing test ED50 (mice [2]) | acetic acid writhing test Max. efficacy (mice [2]) |
| --- | --- | --- | --- | --- |
| COC12CCC3(CC1C(C)(O)CC1CCCC1)C1Cc4ccc(O)c5c4C3(CCN1CC1CC1)C2O5 (centres unmarked) | 0.05 mg/kg | 54.2% | 0.0559 mg/kg | 100% |
| COC12CCC3(CC1C(C)(O)CC1CC1)C1Cc4ccc(O)c5c4C3(CCN1CC1CC1)C2O5 (centres unmarked) | 0.2 mg/kg | 71.2% | 0.00639 mg/kg | 100.0% |
